Measurements reported in ChEMBL document CHEMBL4828761, “Development and crystallography-aided SAR studies of multifunctional BuChE inhibitors and 5-HT6R antagonists with β-amyloid anti-aggregation properties” (Eur J Med Chem, 2021).
Activity calls are given as the source filed them. No cut-off for these calls is given here.

By UniProt entry, the sequences of proteins in these tests, tags left out.
UniProt P06276, whole entry: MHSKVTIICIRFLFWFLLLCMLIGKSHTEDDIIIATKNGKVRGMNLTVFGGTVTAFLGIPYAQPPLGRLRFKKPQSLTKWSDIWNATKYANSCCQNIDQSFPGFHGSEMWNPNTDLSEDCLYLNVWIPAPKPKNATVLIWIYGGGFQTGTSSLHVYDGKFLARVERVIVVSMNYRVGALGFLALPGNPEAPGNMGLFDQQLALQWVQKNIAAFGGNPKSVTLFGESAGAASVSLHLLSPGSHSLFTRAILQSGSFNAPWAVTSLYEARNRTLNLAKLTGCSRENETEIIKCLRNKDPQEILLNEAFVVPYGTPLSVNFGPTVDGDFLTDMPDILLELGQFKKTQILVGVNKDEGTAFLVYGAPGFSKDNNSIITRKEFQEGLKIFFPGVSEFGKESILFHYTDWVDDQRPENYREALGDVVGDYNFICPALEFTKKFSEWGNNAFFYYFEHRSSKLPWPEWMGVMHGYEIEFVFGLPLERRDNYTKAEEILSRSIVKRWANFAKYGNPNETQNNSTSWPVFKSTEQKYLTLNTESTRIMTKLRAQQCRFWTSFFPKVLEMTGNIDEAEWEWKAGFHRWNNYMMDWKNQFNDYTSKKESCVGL
UniProt P05067, whole entry: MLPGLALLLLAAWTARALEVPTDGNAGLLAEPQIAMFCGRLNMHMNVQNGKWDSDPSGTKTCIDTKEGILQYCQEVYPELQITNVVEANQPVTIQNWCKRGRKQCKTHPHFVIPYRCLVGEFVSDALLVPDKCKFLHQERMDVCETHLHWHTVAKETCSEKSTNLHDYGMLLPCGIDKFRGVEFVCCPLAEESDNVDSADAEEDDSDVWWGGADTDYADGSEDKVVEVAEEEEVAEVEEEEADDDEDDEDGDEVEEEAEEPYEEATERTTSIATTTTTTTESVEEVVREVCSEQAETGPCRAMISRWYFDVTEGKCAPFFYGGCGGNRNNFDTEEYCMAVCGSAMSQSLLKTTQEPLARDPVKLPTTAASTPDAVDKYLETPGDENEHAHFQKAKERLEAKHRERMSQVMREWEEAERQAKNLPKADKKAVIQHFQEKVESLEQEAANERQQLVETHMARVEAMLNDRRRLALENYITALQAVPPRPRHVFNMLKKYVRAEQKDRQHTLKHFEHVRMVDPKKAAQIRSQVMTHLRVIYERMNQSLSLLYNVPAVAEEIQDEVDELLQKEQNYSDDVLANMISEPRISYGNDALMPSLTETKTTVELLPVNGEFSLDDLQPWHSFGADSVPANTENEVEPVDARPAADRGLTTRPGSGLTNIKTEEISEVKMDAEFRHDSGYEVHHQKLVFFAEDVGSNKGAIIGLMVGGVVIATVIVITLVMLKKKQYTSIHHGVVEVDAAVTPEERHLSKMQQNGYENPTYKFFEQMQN
UniProt P81908, whole entry: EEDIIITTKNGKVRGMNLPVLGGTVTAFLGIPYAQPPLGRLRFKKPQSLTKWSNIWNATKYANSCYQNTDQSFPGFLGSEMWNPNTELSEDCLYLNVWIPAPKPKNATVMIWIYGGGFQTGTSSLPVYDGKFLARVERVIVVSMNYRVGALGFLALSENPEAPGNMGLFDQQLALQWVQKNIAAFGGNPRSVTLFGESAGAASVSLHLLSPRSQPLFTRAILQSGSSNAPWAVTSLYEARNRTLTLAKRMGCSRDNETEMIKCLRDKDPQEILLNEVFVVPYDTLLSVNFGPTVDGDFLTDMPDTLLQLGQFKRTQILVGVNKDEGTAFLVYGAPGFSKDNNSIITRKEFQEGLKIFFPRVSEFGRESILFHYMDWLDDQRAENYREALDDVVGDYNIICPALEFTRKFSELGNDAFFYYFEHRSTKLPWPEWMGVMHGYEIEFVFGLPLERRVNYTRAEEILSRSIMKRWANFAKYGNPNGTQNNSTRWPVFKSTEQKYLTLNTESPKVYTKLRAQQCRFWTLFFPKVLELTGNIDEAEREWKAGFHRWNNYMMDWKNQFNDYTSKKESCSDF

Columns and labels:
[1] = molecular target: Cholinesterase (Homo sapiens, UniProt P06276); assay: Inhibition of BuChE in human plasma using BTC as substrate at 10 uM preincubated with enzyme for 5 mins followed by substrate addition for 5 mins by Ellman's method relative to control; type: cell-free; conditions: time 10.0 min
[2] = molecular target: Amyloid-beta precursor protein (Homo sapiens) (UniProt P05067); assay: Inhibition of amyloid beta (1 to 42) (unknown origin) self aggregation at 10 uM incubated for 24 to 48 hrs by Thioflavin-T based fluorometric assay; conditions: time 24-48 hrs
[3] = molecular target: Cholinesterase (Equus caballus) (UniProt P81908); assay: Reversible inhibition of equine serum BuChE using BTC as substrate at 10XIC50 preincubated with 100-fold diluted enzyme for 120 mins followed by substrate addition and measured after 5 mins by 100-fold dilution assay; type: cell-free; conditions: time 125.0 min

SMILES | inhibition [1] [%] | inhibition [2] [%] | inhibition [3]
O=S(=O)(c1cccc2ccccc12)n1ccc2c(OCCNCc3ccccc3)cccc21 | < 50 | 20.5 | –
CC(=O)Oc1cccc(CNCCOc2cccc3c2ccn3S(=O)(=O)c2ccccc2)c1 | > 50 | < 20 | –
CC(=O)Oc1ccc(CNCCOc2cccc3c2ccn3S(=O)(=O)c2ccccc2)cc1 | > 50 | < 20 | –
CC(C)(C)OC(=O)N1CCCC(CNCCOc2cccc3c2CCN3S(=O)(=O)c2ccccc2)C1 (stereo not drawn) | > 50 | < 20 | –
CC(C)(C)OC(=O)N1CCCC(CNCCOc2cccc3c2ccn3S(=O)(=O)c2cccc3ccccc23)C1 (stereo not drawn) | > 50 | < 20 | Active
O=S(=O)(c1ccccc1)n1ccc2c(OCCNCC3CCCCC3)cccc21 | > 50 | 53.5 | –
O=S(=O)(c1ccccc1)N1CCc2c(OCCNCc3ccccc3)cccc21 | < 50 | < 20 | –
Cc1cccc(CNCCOc2cccc3c2ccn3S(=O)(=O)c2ccccc2)c1 | > 50 | 33.3 | –
O=S(=O)(c1ccccc1)n1ccc2c(OCCNCc3ccccc3Cl)cccc21 | > 50 | < 20 | –
O=S(=O)(c1ccccc1)n1ccc2c(OCCNCc3cc(Cl)cc(Cl)c3)cccc21 | < 50 | < 20 | –
O=S(=O)(c1ccccc1)n1ccc2c(OCCNCc3ccccc3)cccc21 | > 50 | 45.9 | –
O=S(=O)(c1ccccc1)n1ccc2c(OCCNCC3CCCC3)cccc21 | > 50 | < 20 | –
CC(C)(C)OC(=O)N1CCCC(CNCCOc2cccc3c2ccn3S(=O)(=O)c2ccccc2)C1 (stereo not drawn) | > 50 | 59.2 | Active
